Results as given in PubChem BioAssay (NCI).
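These data come from cells grown in 96-well plates and exposed to compound for 48 hours at five concentrations. Abbreviation: GI50, concentration required for 50% inhibition of growth. Definition used: TGI = concentration required for complete inhibition of growth.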

Experiments:
Assay in all cases: inhibition of tumour cell growth, NCI panel, 48 h
786-0 renal = test system: 786-0 renal
A498 renal = test system: A498 renal
A549 NSCLC = test system: A549 NSCLC
ACHN renal = test system: ACHN renal
BT-549 breast = test system: BT-549 breast
CAKI-1 renal = test system: CAKI-1 renal
CCRF-CEM leukemia = test system: CCRF-CEM leukemia
COLO 205 colon = test system: COLO 205 colon
DU-145 prostate = test system: DU-145 prostate
EKVX NSCLC = test system: EKVX NSCLC
HCC-2998 colon = test system: HCC-2998 colon
HCT-116 colon = test system: HCT-116 colon
HCT-15 colon = test system: HCT-15 colon
HL-60(TB) leukemia = test system: HL-60(TB) leukemia
HOP-62 NSCLC = test system: HOP-62 NSCLC
HOP-92 NSCLC = test system: HOP-92 NSCLC
HS 578T breast = test system: HS 578T breast
HT29 colon = test system: HT29 colon
IGROV1 ovarian = test system: IGROV1 ovarian
K-562 leukemia = test system: K-562 leukemia
KM12 colon = test system: KM12 colon
LOX IMVI melanoma = test system: LOX IMVI melanoma
M14 melanoma = test system: M14 melanoma
MALME-3M melanoma = test system: MALME-3M melanoma
MCF7 breast = test system: MCF7 breast
MDA-MB-231 breast = test system: MDA-MB-231 breast
MDA-MB-435 = test system: MDA-MB-435
MOLT-4 leukemia = test system: MOLT-4 leukemia
NCI-H226 lung = test system: NCI-H226 lung
NCI-H23 lung = test system: NCI-H23 lung
NCI-H322M lung = test system: NCI-H322M lung
NCI-H460 lung = test system: NCI-H460 lung
NCI-H522 lung = test system: NCI-H522 lung
NCI/ADR-RES ovarian = test system: NCI/ADR-RES ovarian
OVCAR-3 ovarian = test system: OVCAR-3 ovarian
OVCAR-4 ovarian = test system: OVCAR-4 ovarian
OVCAR-5 ovarian = test system: OVCAR-5 ovarian
OVCAR-8 ovarian = test system: OVCAR-8 ovarian
PC-3 prostate = test system: PC-3 prostate
RPMI-8226 leukemia = test system: RPMI-8226 leukemia
RXF 393 renal = test system: RXF 393 renal
SF-268 CNS = test system: SF-268 CNS
SF-295 CNS = test system: SF-295 CNS
SF-539 CNS = test system: SF-539 CNS
SK-MEL-2 melanoma = test system: SK-MEL-2 melanoma
SK-MEL-28 melanoma = test system: SK-MEL-28 melanoma
SK-MEL-5 melanoma = test system: SK-MEL-5 melanoma
SK-OV-3 ovarian = test system: SK-OV-3 ovarian
SN12C renal = test system: SN12C renal
SNB-19 CNS = test system: SNB-19 CNS
SNB-75 CNS = test system: SNB-75 CNS
SR leukemia = test system: SR leukemia
SW-620 colon = test system: SW-620 colon
T-47D breast = test system: T-47D breast
TK-10 renal = test system: TK-10 renal
U251 CNS = test system: U251 CNS
UACC-257 melanoma = test system: UACC-257 melanoma
UACC-62 melanoma = test system: UACC-62 melanoma
UO-31 renal = test system: UO-31 renal

In the case of `BrC1CSc2cccc3ccc[n+](c23)C1` (stereo not drawn), the GI50 (786-0 renal) is reported as 17.9 µM, the TGI (786-0 renal) is reported as > 100 µM and the GI50 (A498 renal) is reported as 2.79 µM. For the same molecule, the TGI (A498 renal) was 7.94 µM, the GI50 (A549 NSCLC) was 7.1 µM and the TGI (A549 NSCLC) was 59.9 µM. It also gave a GI50 (ACHN renal) of 2.72 µM, a TGI (ACHN renal) of 42.2 µM and a GI50 (BT-549 breast) of 5.58 µM. It also gave a TGI (BT-549 breast) of 22.9 µM, a GI50 (CAKI-1 renal) of 8.8 µM and a TGI (CAKI-1 renal) of 93.3 µM. For the same molecule, the GI50 (CCRF-CEM leukemia) was 6.31 µM, the TGI (CCRF-CEM leukemia) was 44.5 µM and the GI50 (COLO 205 colon) was 10.6 µM. The TGI (COLO 205 colon) was 29.4 µM, the GI50 (DU-145 prostate) was 7.17 µM and the TGI (DU-145 prostate) was 56.2 µM. For the same molecule, the GI50 (EKVX NSCLC) was 15.3 µM, the TGI (EKVX NSCLC) was 49.8 µM and the GI50 (HCC-2998 colon) was 12.6 µM. The TGI (HCC-2998 colon) was 33.2 µM, the GI50 (HCT-116 colon) was 12 µM and the TGI (HCT-116 colon) was 44 µM. The GI50 (HCT-15 colon) was 29.5 µM, the TGI (HCT-15 colon) was > 100 µM and the GI50 (HL-60(TB) leukemia) was 2.65 µM. The TGI (HL-60(TB) leukemia) was 8.92 µM, the GI50 (HOP-62 NSCLC) was 13.1 µM and the TGI (HOP-62 NSCLC) was > 100 µM. The GI50 (HOP-92 NSCLC) was 3.75 µM, the TGI (HOP-92 NSCLC) was 16.4 µM and the GI50 (HS 578T breast) was 37.1 µM. It also gave a TGI (HS 578T breast) of 75.1 µM, a GI50 (HT29 colon) of 15.2 µM and a TGI (HT29 colon) of 65.3 µM. It also gave a GI50 (IGROV1 ovarian) of 11.6 µM, a TGI (IGROV1 ovarian) of 32.1 µM and a GI50 (K-562 leukemia) of 12.8 µM. It also gave a TGI (K-562 leukemia) of 64.1 µM, a GI50 (KM12 colon) of 13.4 µM and a TGI (KM12 colon) of 52.7 µM. For the same molecule, the GI50 (LOX IMVI melanoma) was 16.2 µM, the TGI (LOX IMVI melanoma) was 38.9 µM and the GI50 (M14 melanoma) was 37.3 µM. The TGI (M14 melanoma) was > 100 µM, the GI50 (MALME-3M melanoma) was 11.6 µM and the TGI (MALME-3M melanoma) was 24.2 µM. It also gave a GI50 (MCF7 breast) of 14.2 µM, a TGI (MCF7 breast) of 65.6 µM and a GI50 (MDA-MB-231 breast) of 15 µM. It also gave a TGI (MDA-MB-231 breast) of 80.7 µM, a GI50 (MDA-MB-435) of 17.8 µM and a TGI (MDA-MB-435) of 42.4 µM. For the same molecule, the GI50 (MOLT-4 leukemia) was 1.42 µM, the TGI (MOLT-4 leukemia) was 5.05 µM and the GI50 (NCI-H226 lung) was 25 µM. The TGI (NCI-H226 lung) was 55.7 µM, the GI50 (NCI-H23 lung) was 7.86 µM and the TGI (NCI-H23 lung) was 25.1 µM. For the same molecule, the GI50 (NCI-H322M lung) was 15 µM, the TGI (NCI-H322M lung) was 44 µM and the GI50 (NCI-H460 lung) was 4.98 µM. For the same molecule, the TGI (NCI-H460 lung) was 50 µM, the GI50 (NCI-H522 lung) was 2.3 µM and the TGI (NCI-H522 lung) was 8.56 µM. For the same molecule, the GI50 (NCI/ADR-RES ovarian) was 35.9 µM, the TGI (NCI/ADR-RES ovarian) was > 100 µM and the GI50 (OVCAR-3 ovarian) was 18.1 µM. It also gave a TGI (OVCAR-3 ovarian) of 61.8 µM, a GI50 (OVCAR-4 ovarian) of 15.6 µM and a TGI (OVCAR-4 ovarian) of 43.7 µM. It also gave a GI50 (OVCAR-5 ovarian) of 3.55 µM, a TGI (OVCAR-5 ovarian) of 11.7 µM and a GI50 (OVCAR-8 ovarian) of 14.1 µM. For the same molecule, the TGI (OVCAR-8 ovarian) was 42.5 µM, the GI50 (PC-3 prostate) was 32.2 µM and the TGI (PC-3 prostate) was > 100 µM. For the same molecule, the GI50 (RPMI-8226 leukemia) was 3.24 µM, the TGI (RPMI-8226 leukemia) was 19.3 µM and the GI50 (RXF 393 renal) was 12.6 µM. It also gave a TGI (RXF 393 renal) of 69.3 µM, a GI50 (SF-268 CNS) of 2.87 µM and a TGI (SF-268 CNS) of 46.2 µM. The GI50 (SF-295 CNS) was 9.39 µM, the TGI (SF-295 CNS) was > 100 µM and the GI50 (SF-539 CNS) was 24.5 µM. It also gave a TGI (SF-539 CNS) of 65.1 µM, a GI50 (SK-MEL-2 melanoma) of 18.5 µM and a TGI (SK-MEL-2 melanoma) of 42.7 µM. For the same molecule, the GI50 (SK-MEL-28 melanoma) was 37.6 µM, the TGI (SK-MEL-28 melanoma) was > 100 µM and the GI50 (SK-MEL-5 melanoma) was 7.41 µM. The TGI (SK-MEL-5 melanoma) was 23 µM, the GI50 (SK-OV-3 ovarian) was 21.5 µM and the TGI (SK-OV-3 ovarian) was > 100 µM. For the same molecule, the GI50 (SN12C renal) was 12.9 µM, the TGI (SN12C renal) was 36.8 µM and the GI50 (SNB-19 CNS) was 18.8 µM. The TGI (SNB-19 CNS) was 84.1 µM, the GI50 (SNB-75 CNS) was 37.8 µM and the TGI (SNB-75 CNS) was > 100 µM. It also gave a GI50 (SR leukemia) of 2.33 µM, a TGI (SR leukemia) of 9.68 µM and a GI50 (SW-620 colon) of 17.4 µM. The TGI (SW-620 colon) was > 100 µM, the GI50 (T-47D breast) was 8.56 µM and the TGI (T-47D breast) was 58.7 µM. It also gave a GI50 (TK-10 renal) of 26.1 µM, a TGI (TK-10 renal) of 83.8 µM and a GI50 (U251 CNS) of 12.1 µM. For the same molecule, the TGI (U251 CNS) was 67.5 µM, the GI50 (UACC-257 melanoma) was 21.8 µM and the TGI (UACC-257 melanoma) was 61.1 µM. For the same molecule, the GI50 (UACC-62 melanoma) was 16.3 µM, the TGI (UACC-62 melanoma) was 33.2 µM and the GI50 (UO-31 renal) was 11.9 µM. It also gave a TGI (UO-31 renal) of 30.1 µM.
